One substance from patent US20230257449A1 can be followed below.

The target of this assay is polyclonal human IgG. As to the kind of experiment: BLI polyreactivity: polyclonal human IgG on anti-human CH1 biosensors.

For Control Antibody, the Max Signal (nm) is 0.046 nm.
